The data set in a line: Long-term stability study, alkaline RP-HPLC. Type of data set: physicochemical. To be noted: for Total degradation: ambient temperature.

In the case of `CC(=O)NCC[C@H](NC(=O)[C@H](CO)NC(=O)[C@@H](N)Cc1c[nH]cn1)C(=O)NCC(=O)N[C@H](C(=O)N[C@@H](Cc1ccccc1)C(=O)N[C@H](C(=O)N[C@@H](CO)C(=O)N[C@@H](CC(=O)O)C(=O)N[C@@H](Cc1ccc(O)cc1)C(=O)N[C@@H](CO)C(=O)N[C@@H](CCCCN)C(=O)N[C@@H](Cc1ccc(O)cc1)C(=O)N[C@@H](CC(C)C)C(=O)N[C@@H](CC(=O)O)C(=O)NC(C)(C)C(=O)N[C@@H](CCCNC(=N)N)C(=O)N[C@@H](CCCNC(=N)N)C(=O)N[C@@H](C)C(=O)N[C@@H](C)C(=O)N[C@@H](CC(=O)O)C(=O)N[C@@H](Cc1ccccc1)C(=O)N[C@H](C(=O)N[C@@H](C)C(=O)N[C@@H](Cc1c[nH]c2ccccc12)C(=O)N[C@@H](CC(C)C)C(=O)N[C@@H](CC(C)C)C(=O)N[C@@H](CC(=O)O)C(=O)N[C@@H](CCC(=O)O)C(=O)O)C(C)C)[C@@H](C)O)[C@@H](C)O` [IUB76], for the setting “Figure 8, trend-line of degradation slopes”, the “Difference in stability at six months between IUB75 and IUB76 (Δ2)” value is on record as 10%. The Total degradation entry (one year, 1 mg/ml, 20 mM Tris, 0.1% SDS, pH 8.6, relative to the approximately 10% at six months) was “twice that amount” and the Total degradation result (six months, 1 mg/ml, 20 mM Tris, 0.1% SDS, pH 8.6) is given as “approximately 10%”. For the same compound, the Degradation entry (one year, refrigeration at 4 °C, 1 mg/ml, 20 mM Tris, 0.1% SDS, pH 8.6) was “less than 10%”.

The values are drawn from publication PMC3986664 (Molecular Metabolism, 2014).
